Laboratory results from USRE28744E, “Crystalline p-hydroxyampicillin and salts thereof” (priority 1968, dated 1976).
Where two headings read alike, the source gives them in different places.

Columns and labels:
Assay type in all cases: cell-based
Paracolon 232 = test: serial dilution in nutrient agar, synergy M.I.C., Paracolon 232
Proteus vulgaris K = test: serial dilution in nutrient agar, synergy M.I.C., Proteus vulgaris K
Proteus morganii G = test: serial dilution in nutrient agar, synergy M.I.C., Proteus morganii G
E. coli 37 = test: serial dilution in nutrient agar, synergy M.I.C., E. coli 37
[1] = in the presence of 100 μg./ml. Cloxacillin
[2] = in the presence of 100 μg./ml. Dicloxacillin
[3] = in the presence of 100 μg./ml. Nafcillin
[4] = in the presence of 100 μg./ml. Methicillin

CC1(C)S[C@@H]2[C@H](NC(=O)[C@H](N)c3ccc(O)cc3)C(=O)N2[C@H]1C(=O)O [Example 3, 6-[(-)α-amino-p-hydroxyphenylacetamido]Penicillanic Acid]
1.25 µg/mL: Minimum inhibitory concentration, Paracolon 232 (Paracolon 232) | Minimum inhibitory concentration, Paracolon 232 (Paracolon 232; [1]) | Minimum inhibitory concentration, Paracolon 232 (Paracolon 232; [2]) | Minimum inhibitory concentration, Proteus morganii G (Proteus morganii G; [4]) | Minimum inhibitory concentration, E. coli 37 (E. coli 37) | Minimum inhibitory concentration, E. coli 37 (E. coli 37; [1]) | Minimum inhibitory concentration, E. coli 37 (E. coli 37; [2]) | Minimum inhibitory concentration, E. coli 37 (E. coli 37; [4])
12.5 µg/mL: Minimum inhibitory concentration, Paracolon 232 (Paracolon 232; [3]) | Minimum inhibitory concentration, Proteus vulgaris K (Proteus vulgaris K; [1]) | Minimum inhibitory concentration, Proteus morganii G (Proteus morganii G; [1])
125 µg/mL: Minimum inhibitory concentration, Paracolon 232 (Paracolon 232; None (alone), 18 hours at 37°C) | Minimum inhibitory concentration, Proteus vulgaris K (Proteus vulgaris K; [3]) | Minimum inhibitory concentration, Proteus morganii G (Proteus morganii G; [3]) | Minimum inhibitory concentration, E. coli 37 (E. coli 37; None (alone), 18 hours at 37°C)
